{
  "source": "patent US12440610B2",
  "about": "“Coated medical devices and methods of inhibiting implant-associated infections” (UNIVERSITY OF CINCINNATI, priority 2017, dated 2025)",
  "tested_on": "P. aeruginosa (strain 762)",
  "experiment": "In vitro bacterial adherence and colonization of coated implants, P. aeruginosa",
  "type": "cell-based",
  "conditions": "p<0.05",
  "method": "Bacteria was prepared as in 2.3 and 1000 colony forming units (cfus) in 300 μL was placed in the wells of 96-well plates. […] Pieces were then placed in 10 mL sterile PBS and bath sonicated for 10 minutes to release adherent bacteria. Bacteria were quantified by the plate dilution method.",
  "data": [
    {"smiles": "O=C(N[C@H](CO)[C@H](O)c1ccc([N+](=O)[O-])cc1)C(Cl)Cl", "note": "[Chloramphenicol]", "values": [
      {"measurement": "PA adherence to PTFE (in words)", "setting": "coated PTFE", "value": "significantly reduced"},
      {"measurement": "PA adherence to silk suture (in words)", "setting": "coated silk suture", "value": "significantly reduced"}
    ]}
  ]
}
